Reference: patent US20020061838A1, “Peptide pharmaceutical formulations” (priority 2000, published 2002)

Assay: Tolerability and response after subcutaneous or intravenous delivery of the formulations in humans
Details: subcutaneous, about 1 mL

CC[C@H](C)[C@H](NC(=O)[C@H](C)NC(=O)[C@H](CC(=O)O)NC(=O)[C@H](C)NC(=O)[C@@H](N)Cc1ccc(O)cc1)C(=O)N[C@@H](Cc1ccccc1)C(=O)N[C@H](C(=O)N[C@@H](CC(N)=O)C(=O)N[C@@H](CO)C(=O)N[C@@H](Cc1ccc(O)cc1)C(=O)N[C@@H](CCCNC(=N)N)C(=O)N[C@@H](CCCCN)C(=O)N[C@H](C(=O)N[C@@H](CC(C)C)C(=O)NCC(=O)N[C@@H](CCC(N)=O)C(=O)N[C@@H](CC(C)C)C(=O)N[C@@H](CO)C(=O)N[C@@H](C)C(=O)N[C@@H](CCCNC(=N)N)C(=O)N[C@@H](CCCCN)C(=O)N[C@@H](CC(C)C)C(=O)N[C@@H](CC(C)C)C(=O)N[C@@H](CCC(N)=O)C(=O)N[C@@H](CC(=O)O)C(=O)N[C@H](C(=O)N[C@@H](CCSC)C(=O)N[C@@H](CO)C(=O)N[C@@H](CCCNC(=N)N)C(=O)N[C@@H](CCC(N)=O)C(=O)N[C@@H](CCC(N)=O)C(=O)NCC(=O)N[C@@H](CCC(=O)O)C(=O)N[C@@H](CO)C(=O)N[C@@H](CC(N)=O)C(=O)N[C@@H](CCC(N)=O)C(=O)N[C@@H](CCC(=O)O)C(=O)N[C@@H](CCCNC(=N)N)C(=O)NCC(=O)N[C@@H](C)C(=O)N[C@@H](CCCNC(=N)N)C(=O)N[C@@H](C)C(=O)N[C@@H](CCCNC(=N)N)C(=O)N[C@@H](CC(C)C)C(N)=O)[C@@H](C)CC)C(C)C)[C@@H](C)O [GRF, GRF(1-44)amide]
response as assessed by the level of peptide drug appearing in the blood: rapid response
